# For some assays here: This list holds what a sample rich in strong results left over. How the calls were made is not given here. The list shows a part of the results, in another mix than the full data.
# By UniProt entry, the sequences of proteins in these tests, tags left out. Where a name states a change or a piece, a line headed by the entry shows the natural chain unless it says otherwise.
# UniProt Q13882, whole entry, looked up: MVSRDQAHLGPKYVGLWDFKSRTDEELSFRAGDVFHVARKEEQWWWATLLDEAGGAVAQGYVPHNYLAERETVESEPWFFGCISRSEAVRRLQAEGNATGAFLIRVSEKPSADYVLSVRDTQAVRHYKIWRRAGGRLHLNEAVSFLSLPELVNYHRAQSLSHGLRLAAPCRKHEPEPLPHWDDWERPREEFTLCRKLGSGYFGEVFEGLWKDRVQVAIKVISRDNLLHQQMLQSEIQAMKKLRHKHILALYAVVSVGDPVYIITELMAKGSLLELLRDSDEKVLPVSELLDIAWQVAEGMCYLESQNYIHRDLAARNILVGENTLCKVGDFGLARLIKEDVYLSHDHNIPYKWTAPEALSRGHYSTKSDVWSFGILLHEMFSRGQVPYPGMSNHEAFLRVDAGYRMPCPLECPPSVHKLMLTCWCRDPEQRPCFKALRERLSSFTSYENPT
# UniProt P67870, whole entry, looked up: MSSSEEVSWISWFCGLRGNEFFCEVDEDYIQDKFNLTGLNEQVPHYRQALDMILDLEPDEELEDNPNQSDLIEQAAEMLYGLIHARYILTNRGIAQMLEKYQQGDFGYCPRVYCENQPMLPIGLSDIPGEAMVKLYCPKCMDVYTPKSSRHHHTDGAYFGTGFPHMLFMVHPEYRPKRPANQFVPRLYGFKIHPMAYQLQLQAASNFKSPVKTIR
# UniProt P68400, whole entry, looked up: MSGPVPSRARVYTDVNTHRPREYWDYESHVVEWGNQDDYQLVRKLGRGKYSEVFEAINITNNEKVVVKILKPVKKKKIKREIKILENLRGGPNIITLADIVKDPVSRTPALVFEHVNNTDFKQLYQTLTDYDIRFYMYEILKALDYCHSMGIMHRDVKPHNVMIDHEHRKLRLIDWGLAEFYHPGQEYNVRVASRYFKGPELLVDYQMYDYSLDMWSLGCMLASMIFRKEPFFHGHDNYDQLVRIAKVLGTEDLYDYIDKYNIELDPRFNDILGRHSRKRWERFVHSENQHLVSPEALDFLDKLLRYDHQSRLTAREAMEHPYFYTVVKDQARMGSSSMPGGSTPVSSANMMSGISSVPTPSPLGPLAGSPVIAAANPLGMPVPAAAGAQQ
# UniProt P19784, whole entry, looked up: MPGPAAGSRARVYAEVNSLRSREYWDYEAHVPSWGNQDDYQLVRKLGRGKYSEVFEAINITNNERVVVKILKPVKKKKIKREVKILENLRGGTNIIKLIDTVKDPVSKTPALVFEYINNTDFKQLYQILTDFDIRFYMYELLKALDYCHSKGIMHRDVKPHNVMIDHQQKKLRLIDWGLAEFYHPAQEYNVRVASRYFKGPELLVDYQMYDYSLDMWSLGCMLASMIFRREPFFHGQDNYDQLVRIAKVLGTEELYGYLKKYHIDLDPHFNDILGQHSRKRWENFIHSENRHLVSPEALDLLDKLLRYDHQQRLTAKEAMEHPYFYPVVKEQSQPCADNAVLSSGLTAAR
# UniProt P41240: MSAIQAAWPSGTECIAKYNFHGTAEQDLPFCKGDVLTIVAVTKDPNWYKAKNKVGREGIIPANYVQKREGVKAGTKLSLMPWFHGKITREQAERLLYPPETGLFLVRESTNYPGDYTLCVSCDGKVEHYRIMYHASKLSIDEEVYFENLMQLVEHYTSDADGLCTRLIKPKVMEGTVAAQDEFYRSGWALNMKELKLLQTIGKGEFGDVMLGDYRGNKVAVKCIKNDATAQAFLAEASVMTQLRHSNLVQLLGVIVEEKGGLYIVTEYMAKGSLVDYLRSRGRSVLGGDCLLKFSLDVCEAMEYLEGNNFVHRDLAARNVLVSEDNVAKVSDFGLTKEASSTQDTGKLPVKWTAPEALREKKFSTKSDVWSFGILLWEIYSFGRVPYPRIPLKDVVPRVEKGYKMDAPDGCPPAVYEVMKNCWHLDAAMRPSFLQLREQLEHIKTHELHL
# UniProt P53355: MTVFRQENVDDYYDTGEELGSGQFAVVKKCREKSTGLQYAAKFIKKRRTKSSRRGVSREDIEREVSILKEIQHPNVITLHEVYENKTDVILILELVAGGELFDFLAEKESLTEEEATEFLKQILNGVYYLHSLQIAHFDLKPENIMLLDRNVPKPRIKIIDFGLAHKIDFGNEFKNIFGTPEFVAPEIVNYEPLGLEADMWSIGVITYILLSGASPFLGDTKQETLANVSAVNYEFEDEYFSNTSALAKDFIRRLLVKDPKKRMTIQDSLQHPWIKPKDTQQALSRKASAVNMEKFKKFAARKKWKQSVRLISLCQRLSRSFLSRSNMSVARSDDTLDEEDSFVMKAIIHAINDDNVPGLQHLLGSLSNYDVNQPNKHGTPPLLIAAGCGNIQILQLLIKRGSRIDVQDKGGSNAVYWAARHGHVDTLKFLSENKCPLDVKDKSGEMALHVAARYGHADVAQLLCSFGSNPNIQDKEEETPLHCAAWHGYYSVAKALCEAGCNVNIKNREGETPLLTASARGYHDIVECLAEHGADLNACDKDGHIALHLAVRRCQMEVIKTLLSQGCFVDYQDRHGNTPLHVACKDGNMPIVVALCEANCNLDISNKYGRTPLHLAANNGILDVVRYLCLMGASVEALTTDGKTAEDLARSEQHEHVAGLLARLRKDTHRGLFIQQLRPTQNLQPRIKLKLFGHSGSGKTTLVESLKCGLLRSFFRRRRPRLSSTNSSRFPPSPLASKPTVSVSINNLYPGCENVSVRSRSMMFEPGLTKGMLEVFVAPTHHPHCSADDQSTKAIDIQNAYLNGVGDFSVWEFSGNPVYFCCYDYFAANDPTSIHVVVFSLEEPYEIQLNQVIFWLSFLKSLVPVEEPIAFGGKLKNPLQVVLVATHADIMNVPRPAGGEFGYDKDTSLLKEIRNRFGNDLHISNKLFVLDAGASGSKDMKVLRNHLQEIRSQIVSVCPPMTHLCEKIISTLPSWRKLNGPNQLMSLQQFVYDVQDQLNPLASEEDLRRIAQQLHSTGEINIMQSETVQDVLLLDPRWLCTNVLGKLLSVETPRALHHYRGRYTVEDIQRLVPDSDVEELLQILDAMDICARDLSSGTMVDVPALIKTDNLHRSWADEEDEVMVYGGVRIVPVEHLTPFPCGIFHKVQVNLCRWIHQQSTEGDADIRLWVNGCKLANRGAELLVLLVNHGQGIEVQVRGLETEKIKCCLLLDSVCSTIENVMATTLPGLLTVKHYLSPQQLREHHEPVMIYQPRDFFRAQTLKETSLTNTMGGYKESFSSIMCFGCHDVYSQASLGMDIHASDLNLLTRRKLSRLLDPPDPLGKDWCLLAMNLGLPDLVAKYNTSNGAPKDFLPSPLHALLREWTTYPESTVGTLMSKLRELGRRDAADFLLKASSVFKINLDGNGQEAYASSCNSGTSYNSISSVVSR
# UniProt Q9UIK4: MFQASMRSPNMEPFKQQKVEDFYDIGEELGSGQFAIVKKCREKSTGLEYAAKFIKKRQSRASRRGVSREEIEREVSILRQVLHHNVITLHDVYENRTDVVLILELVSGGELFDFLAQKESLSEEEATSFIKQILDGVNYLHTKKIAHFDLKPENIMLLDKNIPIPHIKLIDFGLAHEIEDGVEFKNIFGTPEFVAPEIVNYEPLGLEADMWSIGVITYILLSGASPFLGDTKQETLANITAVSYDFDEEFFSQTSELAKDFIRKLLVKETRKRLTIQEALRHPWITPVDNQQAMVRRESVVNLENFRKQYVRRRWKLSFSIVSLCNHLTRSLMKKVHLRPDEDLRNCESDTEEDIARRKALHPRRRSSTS
# UniProt P54764, whole entry: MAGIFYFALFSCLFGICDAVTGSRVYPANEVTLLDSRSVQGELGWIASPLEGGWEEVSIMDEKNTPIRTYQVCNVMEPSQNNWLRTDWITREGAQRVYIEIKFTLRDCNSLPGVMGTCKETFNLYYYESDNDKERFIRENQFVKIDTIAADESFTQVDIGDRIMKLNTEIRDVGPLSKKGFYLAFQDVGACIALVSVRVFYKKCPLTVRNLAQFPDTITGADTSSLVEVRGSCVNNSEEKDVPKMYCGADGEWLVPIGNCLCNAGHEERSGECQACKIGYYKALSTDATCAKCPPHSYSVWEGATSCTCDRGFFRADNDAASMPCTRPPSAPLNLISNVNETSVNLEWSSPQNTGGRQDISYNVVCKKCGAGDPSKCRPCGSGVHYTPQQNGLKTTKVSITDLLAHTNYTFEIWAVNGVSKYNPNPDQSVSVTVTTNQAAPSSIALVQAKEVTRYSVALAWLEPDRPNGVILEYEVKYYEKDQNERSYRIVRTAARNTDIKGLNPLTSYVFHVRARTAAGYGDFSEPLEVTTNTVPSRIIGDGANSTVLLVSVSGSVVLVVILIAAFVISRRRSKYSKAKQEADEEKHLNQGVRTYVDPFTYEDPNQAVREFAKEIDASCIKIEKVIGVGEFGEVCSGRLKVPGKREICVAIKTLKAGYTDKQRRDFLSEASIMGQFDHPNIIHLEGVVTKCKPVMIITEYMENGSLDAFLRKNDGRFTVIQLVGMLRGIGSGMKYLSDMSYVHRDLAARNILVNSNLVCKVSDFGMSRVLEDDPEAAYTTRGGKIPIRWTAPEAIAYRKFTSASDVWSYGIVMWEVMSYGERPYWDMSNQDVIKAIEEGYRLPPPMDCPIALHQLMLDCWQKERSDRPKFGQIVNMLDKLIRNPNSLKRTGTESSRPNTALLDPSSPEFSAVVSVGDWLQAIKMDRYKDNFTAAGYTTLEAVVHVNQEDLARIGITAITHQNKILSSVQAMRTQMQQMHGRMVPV
# UniProt P29323: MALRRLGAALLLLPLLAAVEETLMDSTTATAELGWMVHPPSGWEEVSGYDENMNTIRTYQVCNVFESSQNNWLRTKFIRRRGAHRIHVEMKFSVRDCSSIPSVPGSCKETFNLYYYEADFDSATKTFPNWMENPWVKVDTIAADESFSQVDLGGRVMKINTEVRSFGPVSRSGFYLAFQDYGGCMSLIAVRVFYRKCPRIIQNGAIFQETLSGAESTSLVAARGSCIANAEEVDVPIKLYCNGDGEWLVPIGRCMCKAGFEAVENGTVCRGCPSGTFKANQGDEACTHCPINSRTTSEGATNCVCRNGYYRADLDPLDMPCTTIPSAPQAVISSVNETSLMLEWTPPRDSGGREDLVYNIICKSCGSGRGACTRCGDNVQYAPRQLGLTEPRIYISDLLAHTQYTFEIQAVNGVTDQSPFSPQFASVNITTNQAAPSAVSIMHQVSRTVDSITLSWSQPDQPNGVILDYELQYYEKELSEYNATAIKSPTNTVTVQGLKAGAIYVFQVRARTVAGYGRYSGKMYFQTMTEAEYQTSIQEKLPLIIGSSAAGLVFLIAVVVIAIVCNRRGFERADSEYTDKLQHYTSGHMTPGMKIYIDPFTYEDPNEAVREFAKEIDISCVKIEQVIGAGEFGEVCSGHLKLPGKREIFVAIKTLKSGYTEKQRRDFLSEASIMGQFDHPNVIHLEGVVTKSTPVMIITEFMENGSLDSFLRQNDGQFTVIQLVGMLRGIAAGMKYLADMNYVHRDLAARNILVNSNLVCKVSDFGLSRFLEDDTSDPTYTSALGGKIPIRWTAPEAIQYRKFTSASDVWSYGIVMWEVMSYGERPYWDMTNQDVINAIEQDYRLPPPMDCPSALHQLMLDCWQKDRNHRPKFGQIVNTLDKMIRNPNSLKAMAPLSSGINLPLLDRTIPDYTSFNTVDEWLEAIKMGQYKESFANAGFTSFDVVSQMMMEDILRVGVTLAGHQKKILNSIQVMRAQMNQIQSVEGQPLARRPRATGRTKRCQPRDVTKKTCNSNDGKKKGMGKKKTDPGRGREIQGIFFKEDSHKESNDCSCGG
# UniProt P07332: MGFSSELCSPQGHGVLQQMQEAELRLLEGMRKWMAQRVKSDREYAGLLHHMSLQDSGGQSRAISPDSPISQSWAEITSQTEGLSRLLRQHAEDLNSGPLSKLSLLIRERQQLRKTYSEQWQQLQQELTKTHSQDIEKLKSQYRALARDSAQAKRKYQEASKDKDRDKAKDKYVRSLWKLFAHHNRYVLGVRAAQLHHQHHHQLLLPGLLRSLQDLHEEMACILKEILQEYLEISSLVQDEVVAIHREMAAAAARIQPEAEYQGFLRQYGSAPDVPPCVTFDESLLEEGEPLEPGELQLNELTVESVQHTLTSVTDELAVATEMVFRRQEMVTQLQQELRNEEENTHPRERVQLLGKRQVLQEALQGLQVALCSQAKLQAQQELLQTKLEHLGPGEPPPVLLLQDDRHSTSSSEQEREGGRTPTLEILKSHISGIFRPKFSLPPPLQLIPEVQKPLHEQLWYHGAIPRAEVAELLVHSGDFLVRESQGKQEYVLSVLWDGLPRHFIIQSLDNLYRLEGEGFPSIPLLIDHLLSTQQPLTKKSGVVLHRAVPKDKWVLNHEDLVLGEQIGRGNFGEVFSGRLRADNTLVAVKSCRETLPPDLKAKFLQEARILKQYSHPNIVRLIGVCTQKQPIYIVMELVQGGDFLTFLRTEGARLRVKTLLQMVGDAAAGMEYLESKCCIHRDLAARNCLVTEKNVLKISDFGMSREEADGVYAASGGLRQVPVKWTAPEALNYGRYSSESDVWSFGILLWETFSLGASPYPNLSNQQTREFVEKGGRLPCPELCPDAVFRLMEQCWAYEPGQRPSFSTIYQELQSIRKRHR
# Assays:
# [1] = biological target: Protein kinase C zeta type (Homo sapiens) (UniProt Q05513); conditions: at 1 µM
# [2] = biological target: Protein-tyrosine kinase 6 (Homo sapiens) (UniProt Q13882); conditions: at 1 µM
# [3] = biological target: T1, Casein kinase II (Homo sapiens) (UniProt P67870+P68400+P19784); conditions: at 1 µM
# [4] = biological target: T1, Casein kinase II (Homo sapiens); conditions: at 10 µM
# [5] = biological target: Tyrosine-protein kinase CSK (Homo sapiens) (UniProt P41240); conditions: at 10 µM
# [6] = biological target: Death-associated protein kinase 1 (Homo sapiens) (UniProt P53355); conditions: at 1 µM
# [7] = biological target: Death-associated protein kinase 2 (Homo sapiens) (UniProt Q9UIK4); conditions: at 1 µM
# [8] = biological target: T2, Discoidin domain-containing receptor 2 (Homo sapiens) (UniProt Q16832); conditions: at 1 µM
# T2 sequence (whole entry): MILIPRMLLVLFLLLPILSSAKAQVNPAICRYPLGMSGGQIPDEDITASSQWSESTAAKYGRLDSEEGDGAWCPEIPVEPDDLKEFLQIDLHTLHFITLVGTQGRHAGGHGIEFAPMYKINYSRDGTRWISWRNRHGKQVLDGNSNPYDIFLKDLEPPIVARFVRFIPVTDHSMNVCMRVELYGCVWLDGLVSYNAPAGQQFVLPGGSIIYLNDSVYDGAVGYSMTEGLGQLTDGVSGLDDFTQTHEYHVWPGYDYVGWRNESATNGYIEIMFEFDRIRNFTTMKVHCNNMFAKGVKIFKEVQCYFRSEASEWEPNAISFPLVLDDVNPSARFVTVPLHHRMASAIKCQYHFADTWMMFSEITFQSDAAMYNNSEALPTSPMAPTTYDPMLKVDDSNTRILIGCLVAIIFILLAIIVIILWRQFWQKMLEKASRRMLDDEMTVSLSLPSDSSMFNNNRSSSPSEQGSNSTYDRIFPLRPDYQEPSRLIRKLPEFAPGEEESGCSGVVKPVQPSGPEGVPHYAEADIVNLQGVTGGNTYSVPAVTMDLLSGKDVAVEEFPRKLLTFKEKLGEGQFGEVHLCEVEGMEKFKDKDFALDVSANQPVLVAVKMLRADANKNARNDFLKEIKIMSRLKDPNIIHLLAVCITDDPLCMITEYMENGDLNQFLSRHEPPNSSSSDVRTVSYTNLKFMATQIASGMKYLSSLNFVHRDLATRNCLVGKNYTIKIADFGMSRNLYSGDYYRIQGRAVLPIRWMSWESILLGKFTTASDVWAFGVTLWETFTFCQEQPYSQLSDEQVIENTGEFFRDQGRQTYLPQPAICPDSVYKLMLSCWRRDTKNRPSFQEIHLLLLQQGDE
# [9] = biological target: T3, Ephrin type-A receptor 3 (Homo sapiens) (UniProt P29320); conditions: at 1 µM
# T3 sequence (whole entry): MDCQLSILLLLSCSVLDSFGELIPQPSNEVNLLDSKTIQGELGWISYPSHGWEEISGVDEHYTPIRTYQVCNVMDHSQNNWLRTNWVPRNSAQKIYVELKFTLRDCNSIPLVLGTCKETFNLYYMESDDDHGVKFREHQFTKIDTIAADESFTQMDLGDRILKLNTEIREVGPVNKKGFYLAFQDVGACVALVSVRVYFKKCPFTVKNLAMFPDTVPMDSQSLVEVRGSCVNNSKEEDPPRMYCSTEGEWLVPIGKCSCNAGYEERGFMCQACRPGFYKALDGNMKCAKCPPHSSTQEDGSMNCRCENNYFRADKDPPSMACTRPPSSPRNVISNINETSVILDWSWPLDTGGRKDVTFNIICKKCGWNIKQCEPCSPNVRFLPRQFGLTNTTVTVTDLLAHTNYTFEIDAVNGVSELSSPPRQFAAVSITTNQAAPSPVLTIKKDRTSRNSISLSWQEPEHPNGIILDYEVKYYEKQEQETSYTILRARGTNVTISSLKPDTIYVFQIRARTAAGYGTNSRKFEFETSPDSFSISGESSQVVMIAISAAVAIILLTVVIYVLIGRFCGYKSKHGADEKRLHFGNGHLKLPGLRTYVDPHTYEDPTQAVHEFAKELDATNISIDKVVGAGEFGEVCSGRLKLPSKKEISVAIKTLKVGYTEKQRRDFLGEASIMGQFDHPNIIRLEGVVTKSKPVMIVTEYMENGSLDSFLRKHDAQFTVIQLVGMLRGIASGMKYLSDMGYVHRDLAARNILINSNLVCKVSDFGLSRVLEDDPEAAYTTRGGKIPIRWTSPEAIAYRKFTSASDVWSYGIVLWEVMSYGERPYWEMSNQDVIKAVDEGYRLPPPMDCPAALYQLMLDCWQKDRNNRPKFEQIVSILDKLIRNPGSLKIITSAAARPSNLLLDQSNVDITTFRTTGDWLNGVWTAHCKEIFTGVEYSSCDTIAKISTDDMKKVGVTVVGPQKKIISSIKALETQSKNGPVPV
# [10] = biological target: Ephrin type-A receptor 4 (Homo sapiens) (UniProt P54764); conditions: at 1 µM
# [11] = biological target: T4, Ephrin type-A receptor 8 (Homo sapiens) (UniProt P29322); conditions: at 1 µM
# T4 sequence (whole entry): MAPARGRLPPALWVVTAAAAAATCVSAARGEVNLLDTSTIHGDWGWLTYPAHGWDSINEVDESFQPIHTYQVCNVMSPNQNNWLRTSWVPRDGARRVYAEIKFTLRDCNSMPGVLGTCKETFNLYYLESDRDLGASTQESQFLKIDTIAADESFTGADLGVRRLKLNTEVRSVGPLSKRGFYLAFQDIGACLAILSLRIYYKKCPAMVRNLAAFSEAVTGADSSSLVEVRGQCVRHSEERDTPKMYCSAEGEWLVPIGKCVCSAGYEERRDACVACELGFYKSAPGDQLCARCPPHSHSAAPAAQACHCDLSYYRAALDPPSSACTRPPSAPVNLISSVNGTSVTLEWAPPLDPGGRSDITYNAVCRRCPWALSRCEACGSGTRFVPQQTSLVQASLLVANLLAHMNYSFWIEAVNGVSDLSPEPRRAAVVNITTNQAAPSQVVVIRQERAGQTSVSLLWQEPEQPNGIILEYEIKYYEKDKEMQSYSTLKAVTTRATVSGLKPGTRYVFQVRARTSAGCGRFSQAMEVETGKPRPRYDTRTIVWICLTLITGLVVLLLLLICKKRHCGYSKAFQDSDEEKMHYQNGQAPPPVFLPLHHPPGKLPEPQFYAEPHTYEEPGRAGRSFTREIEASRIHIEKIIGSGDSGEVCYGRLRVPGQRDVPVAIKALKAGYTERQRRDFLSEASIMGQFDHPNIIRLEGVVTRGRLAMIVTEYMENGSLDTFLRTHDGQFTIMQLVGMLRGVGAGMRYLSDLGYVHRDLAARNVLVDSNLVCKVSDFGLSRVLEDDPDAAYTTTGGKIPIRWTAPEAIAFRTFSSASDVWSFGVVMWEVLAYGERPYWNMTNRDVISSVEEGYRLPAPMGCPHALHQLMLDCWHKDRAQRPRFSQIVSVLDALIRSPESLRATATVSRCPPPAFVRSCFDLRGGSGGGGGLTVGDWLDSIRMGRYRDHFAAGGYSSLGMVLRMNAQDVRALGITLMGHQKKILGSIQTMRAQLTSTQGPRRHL
# [12] = biological target: T5, Ephrin type-B receptor 1 (Homo sapiens) (UniProt P54762); conditions: at 1 µM
# T5 sequence (whole entry): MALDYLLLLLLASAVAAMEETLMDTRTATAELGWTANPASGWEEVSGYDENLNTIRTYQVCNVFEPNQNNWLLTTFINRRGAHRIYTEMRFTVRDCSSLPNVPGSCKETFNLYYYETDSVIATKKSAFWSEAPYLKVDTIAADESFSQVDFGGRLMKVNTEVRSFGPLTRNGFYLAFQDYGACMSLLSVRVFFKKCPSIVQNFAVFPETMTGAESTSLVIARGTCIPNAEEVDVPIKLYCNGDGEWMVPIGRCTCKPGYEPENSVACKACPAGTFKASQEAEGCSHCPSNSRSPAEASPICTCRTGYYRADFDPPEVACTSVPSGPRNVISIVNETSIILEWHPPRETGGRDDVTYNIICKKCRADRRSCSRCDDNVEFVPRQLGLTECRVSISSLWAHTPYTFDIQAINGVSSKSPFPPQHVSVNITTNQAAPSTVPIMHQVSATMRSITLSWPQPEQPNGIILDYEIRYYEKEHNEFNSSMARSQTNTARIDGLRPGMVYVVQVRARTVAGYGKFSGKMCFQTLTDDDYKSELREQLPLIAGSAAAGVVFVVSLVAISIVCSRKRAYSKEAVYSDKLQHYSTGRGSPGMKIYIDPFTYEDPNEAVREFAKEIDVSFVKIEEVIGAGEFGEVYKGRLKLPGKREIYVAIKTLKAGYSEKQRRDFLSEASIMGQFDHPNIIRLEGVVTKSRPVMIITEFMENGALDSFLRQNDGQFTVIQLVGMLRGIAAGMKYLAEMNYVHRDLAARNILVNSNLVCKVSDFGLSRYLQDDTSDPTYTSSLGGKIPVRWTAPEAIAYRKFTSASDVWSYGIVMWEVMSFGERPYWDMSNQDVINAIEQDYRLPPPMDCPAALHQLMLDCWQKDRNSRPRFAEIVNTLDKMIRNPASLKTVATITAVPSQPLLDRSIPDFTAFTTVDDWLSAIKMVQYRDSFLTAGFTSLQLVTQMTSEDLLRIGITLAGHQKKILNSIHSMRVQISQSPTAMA
# [13] = biological target: Ephrin type-B receptor 2 (Homo sapiens) (UniProt P29323); conditions: at 1 µM
# [14] = biological target: Tyrosine-protein kinase Fes/Fps (Homo sapiens) (UniProt P07332); conditions: at 1 µM
structure (smiles),measurement,setting,value
O=C(c1cc2cc(O)ccc2[nH]1)c1cc2cc(O)ccc2[nH]1,residual activity,[1],inactive: 103%
same,residual activity,[2],90%
same,residual activity,[3],93%
same,residual activity,[4],88%
same,residual activity,[5],89%
same,residual activity,[6],90%
same,residual activity,[7],88%
same,residual activity,[8],95%
same,residual activity,[9],90%
same,residual activity,[10],96%
same,residual activity,[11],85%
same,residual activity,[12],84%
same,residual activity,[13],88%
same,residual activity,[14],87%

# From ChEMBL document CHEMBL2218924, “A broad activity screen in support of a chemogenomic map for kinase signalling research and drug discovery” (Biochem J, 2013)
